Test results reported in patent publication US8415305B2, “Use of cyclic depsipeptides to inhibit kallikrein 7” (Novartis AG, priority 2007, dated 2013).

By UniProt entry, the sequences of proteins in these tests, tags left out. Residues count along the entry.
UniProt P49862, 30-253 limits assumed: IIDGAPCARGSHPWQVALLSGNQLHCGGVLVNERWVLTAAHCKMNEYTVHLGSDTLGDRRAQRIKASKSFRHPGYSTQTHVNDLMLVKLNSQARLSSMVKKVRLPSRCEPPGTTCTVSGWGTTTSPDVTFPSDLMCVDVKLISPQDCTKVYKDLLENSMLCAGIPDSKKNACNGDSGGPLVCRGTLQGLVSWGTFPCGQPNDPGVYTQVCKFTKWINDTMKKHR

Molecular target: human kallikrein 7 (hKallikrein7) (Homo sapiens, UniProt P49862)
Test: Kallikrein 7 fluorescence-quenched substrate enzymatic assay (IC50)
Settings: read-out: IC50 human kallikrein 7
Procedure: An “inhibitor” is a cyclic depsipeptide that inhibits an enzymatic reaction with a measure IC50 of less than […], for instance 50 μM, 30 μM, 20 μM or 10 μM. Particularly preferred are cyclic depsipeptides with an IC50 of less than 30 μM for human kallikrein 7, for instance cyclic depsipeptides with an IC50 of less than 10 μM, 1 μM, 100 nM, 50 nM, 40 nM, 30 nM, 20 nM, 10 nM, or less. IC50 for human kallikrein can be measured using the fluorescence-quenched substrate Ac-Glu-Asp(EDANS)-Lys-Pro-lle-Leu-Phe^Arg-Leu-Gly-Lys(DABCYL)-Glu-NH2 (SEQ ID NO 1) (where ^ indicates the scissile bond, identified by MS analysis) which can be purchased from Biosyntan (Berlin, Germany). Enzymatic reactions are conducted in 50 mM sodium citrate buffer at pH 5.6 containing 150 mM NaCl and 0.05% (w/v) CHAPS. […]
The fluorescence-quenched substrate Ac-Glu-Asp(EDANS)-Lys-Pro-lle-Leu-Phe^Arg-Leu-Gly-Lys(DABCYL)-Glu-NH2 (SEQ ID NO1) (where ^ indicates the scissile bond, identified by MS analysis) is purchased from Biosyntan (Berlin, Germany) and kept as a 5 mM stock solution in DMSO at −20° C. […]
For fluorescence intensity (FI) measurements an Ultra Evolution reader (TECAN, Maennedorf, Switzerland) is used. The instrument is equipped with a combination of a 350 nm (20 nm bandwidth) and a 500 nm (25 nm bandwidth) bandpath filter for fluorescence excitation and emission acquisition, respectively. […]

SMILES: CC(C)CC(=O)N[C@@H](CCC(N)=O)C(=O)N[C@@H]1C(=O)N[C@@H](CC(C)C)C(=O)NC2CC[C@H](O)N(C2=O)[C@@H](Cc2ccccc2)C(=O)N(C)[C@@H](Cc2ccc(O)cc2)C(=O)N[C@@H](C(C)C)C(=O)O[C@@H]1C (stereo partly shown)
- IC50: < 3 nM
